The chains behind the UniProt entries cited, without tags or fusion partners. Residues count along the entry.
UniProt P37231, 224-505: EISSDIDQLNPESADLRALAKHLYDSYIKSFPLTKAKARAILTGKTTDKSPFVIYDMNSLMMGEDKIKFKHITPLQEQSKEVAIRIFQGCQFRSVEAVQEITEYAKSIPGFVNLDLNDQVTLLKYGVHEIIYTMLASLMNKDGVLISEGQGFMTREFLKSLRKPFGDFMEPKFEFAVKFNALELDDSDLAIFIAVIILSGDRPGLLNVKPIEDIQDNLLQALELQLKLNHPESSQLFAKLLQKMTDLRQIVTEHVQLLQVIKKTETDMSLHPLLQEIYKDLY

In patent publication US20170316147A1, “METHODS AND SYSTEMS FOR IDENTIFYING LIGAND-PROTEIN BINDING SITES” (King Abdullah University of Science and Technology, priority 2014, published 2017):

Target: hPPARγ-LBD (Homo sapiens, UniProt P37231)
Experiment: Differential scanning fluorimetry (thermal shift) on hPPARγ-LBD
Assay type: binding
Design: human PPARγ (amino acids Glu196-Tyr477); made in house
Conditions: seven molar excess of ligand
Source text: PPARγ is a nuclear hormone receptor regulating numerous biological functions including adipogenesis and cell differentiation. Its dysregulation is involved in the onset of diabetes and obesity. The interaction of the ligand binding domain (LBD) of human PPARγ (hPPARγ-LBD) with CoA is one of our most promising predictions, because this interaction achieved a high iDTP score and statistically significant co-citation index (SI Table 3). The pocket predicted by iDTP to bind CoA overlaps with the known ligand binding site of this receptor.
(§1) This method measures the protein unfolding based on fluorescence detection of the denatured form of the protein [59]. […] Fluorescence changes in the wells were monitored with a photomultiplier tube. […] The melting temperatures, Tm, were obtained by fitting the fluorescence data with a Boltzmann model using the GraphPad Prism software.
as §1, with “Differential scanning fluorimetry (DSF or Thermofluor). This” for “This”, “measures” for “measures the”, “(Pantoliano et al., 2001).” for “[59].”, “using” for “using the”

With `CN(CCOc1ccc(CC2SC(=O)NC2=O)cc1)c1ccccn1` (stereo not shown) [Rosiglitazone, reference compound] the “raise of hPPARγ-LBD Tm compared to the apo-protein” value was 2 °C.
